Data taken from article PMC10881971, “Hepa-ToxMOA: a pathway-screening method for evaluating cellular stress and hepatic metabolic-dependent toxicity of natural products” (Scientific Reports, 2024).

Legend:
[1] = test system: AP1, P53, Nrf2, and NF-κB
NF-κB = details: regardless of metabolic activation (S9- and S9+), 24 h

Cucurbitacin B
Toxic (natural products exceeding Score 3, Venn diagram list Fig. 3c) [1]: Common
sum of activity scores compared between metabolic activation and non-metabolic conditions [1]: consistently active regardless of metabolic activation
GFP expression, NF-κB cell line (NF-κB): increased GFP expression
GFP expression, Nrf2 cell line (Nrf2): induced GFP expression
